For this assay, the target named is Nurr1-LBD (Mus musculus, UniProt Q06219). The assay is described as follows: Luciferase reporter assay, Nurr1-LBD, SK-N-BE(2)C cells. Type of assay: cell-based. The note with it: Nurr1 activation; for Maximum fold activity: Supplementary Table 1; for EC50: Supplementary Table 1, values in µM.

Chains of the proteins cited; added tags and fusions are not shown. Residues count along the entry.
UniProt Q06219, 360-595 limits assumed: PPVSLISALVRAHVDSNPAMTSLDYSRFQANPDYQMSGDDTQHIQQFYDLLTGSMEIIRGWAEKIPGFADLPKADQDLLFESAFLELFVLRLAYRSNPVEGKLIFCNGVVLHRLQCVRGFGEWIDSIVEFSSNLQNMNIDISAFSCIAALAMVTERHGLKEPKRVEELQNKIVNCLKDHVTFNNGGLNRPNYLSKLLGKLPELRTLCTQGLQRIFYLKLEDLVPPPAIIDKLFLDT

On to `Cc1cc(N2CCSCC2)nc(N(CCCNc2ccnc3cc(Cl)ccc23)Cc2cccs2)n1`, for which the Maximum fold activity came out at 5.29 ± 0.06 fold and the EC50 came to 1.54 µM.
In the same order, the values of `Clc1ccc2c(NCCN3CCN(c4ccnc(-n5ccnc5)n4)CC3)ccnc2c1` are 4.64 ± 0.21 fold and 1.32 µM.

The values are drawn from article PMC10354055, “An optimized Nurr1 agonist provides disease-modifying effects in Parkinson’s disease models” (Nature Communications, 2023).
